US20260384746A1, “NON-FREEZING REFRIGERATED STORAGE LIQUID FOR STEM CELLS” (published 2026)

Tests used:
human iPS cells (253G1) [1] = assay: Cell viability (WST, Cell Counting Kit-8) after refrigerated storage at 4 °C and 24 h recultivation; conditions: for Relative cell viability, mean: 4 °C, 6 days, HTMX(−)+2 mM Trolox = 1; for Relative cell viability, mean / protective effect / viability (in words) / viability as compared to 2 mM Trolox: 24 h recultivation; for protective effect / viability (in words) / viability as compared to 2 mM Trolox / relative viability (in words): 6 days refrigerated storage; for protective effect / viability (in words): versus Trolox-added group (2 mM); for 80% survival period: refrigerated storage up to 6 days (FIG. 13A); for viability as compared to 2 mM Trolox: at optimal concentration; for relative viability (in words): 24 h recovery culture; for increase of survival after 6 days of cold storage: 6 days cold storage
Procedure: (§1) A human iPS cell line (253G1) derived from a healthy individual obtained from the Center for iPS Cell Research and Application, Kyoto University, was maintained and cultured under feeder-free conditions. StemFit (registered trademark) AK02N (Ajinomoto), a commercially available clinical research medium (for human ES/iPS cells), was used for this culture, and subculture was performed at 1.5E3/cm^2 every 7 days. More details are as follows.
When the cells reached 70-80% confluence on the 7th day after the start of culture, they were enzymatically detached (using 0.5×TrypLE™ Select), dispersed, and washed. After this, the cells were suspended in fresh StemFit™ AK02N medium containing 10 μM Y27362 (FUJIFILM Wako Pure Chemical Industries, Ltd.) as a ROCK inhibitor, and iMatrix-511 (MATRIXOME, Inc.) was added as a further cell culture substrate at 0.1 g/cm^2′ and seeded at a concentration of 1.5E3/cm^2 (1.5×10^3/cm^2). The day after seeding, the medium was replaced with StemFit™ AK02N medium not containing Y27362; and thereafter the medium was replaced every 3 days, and on the 7th day, the cells were subcultured or used for experiments.
(§2) The iPS cells obtained as described above were enzymatically detached and dispersed (0.5× TrypLE (GIBCO)) at 70-80% confluence after seeding; then washed, and suspended in new StemFit™ AAK02N medium containing 10 μM Y27362 (FUJIFILM Wako); and iMatrix-511 (matrixome) was added to 0.1 g/cm^2, then seeded and cultured at a slightly lower concentration (1.0E3/cm^2) than that for maintenance culture. The next day, the medium was replaced with one not containing Y27362. […] After the storage period, the refrigerated storage liquid was removed by suction, and a specified amount of another iPS culture medium (StemFit™ AAK02) was added; and the colonies were cultured for 24 hours under 37 °C 5% CO2 conditions, and viability and cell death were measured. As controls, adopted were: the UW solution (UW) (Astellas Pharma), which is an organ preservation liquid; and HTS-FRS (HTS) (Sigma-Aldrich), which is a commercially available cell preservation liquid
The following base refrigerated storage liquid was prepared. For convenience, this storage liquid will be referred as “HTMX(−)”. This has the same composition as “HTM” described in WO2021/090869A (Patent Document 1), but instead of the UW liquid in Table 2 below, the composition of below-mentioned modified UW liquid is used and Trolox is omitted. • HTMX(−): A modified UW liquid was prepared by omitting hydroxyethyl starch from the composition of the UW solution in Table 2 below and by including 90 mM mannitol and 0.25% polyvinyl alcohol. This modified UW solution was mixed with MEM-alpha (12571-MEMalpha, nucleosides, Thermo Fisher Scientific) in a volume ratio of 2/1. The polyvinyl alcohol (PVA) used here was Merck #363146 having: a saponification degree of 99%; a weight average molecular weight Mw of 85,000-124,000; and a rotational viscosity of a 4% aqueous solution at 20 °C as being 28-32 mPa/sec (28-32 cP, 4% in H2O (20 °C) (lit.)). Gluta MAX (registered trademark, GIBCO) was added to make a 5-fold concentration (×5; 10 mM). • “Trx2.0”: 2.0 mM Trolox was added to the above base refrigerated preservation liquid (“HTMX(−)”). […] Specifically, ZVAD-FMK (Peptide Institute), Necrostatin (ChemScene), Deferoxamine (Cayman Chemicals), Ferrostatin-1 (Cayman Chemicals), Edaravone (Sigma-Aldrich), Probucol (Tokyo Chemical Industry), Trolox (Cayman Chemicals), Deferasirox (Tokyo Chemical Industry), Deferiprone (SelleckBiotech), Ebselen (Tokyo Chemical Industry), and Idebenone (Tokyo Chemical Industry) were added to the preservation liquid or to the medium at the time of recultivation, and the survival percentage and cell death percentage were measured and evaluated.
Cell viability was measured by measuring intracellular dehydrogenase activity, by colorimetry using the WST method with Cell Counting Kit-8 (Dojin Chemical). […]

human iPS cells (253G1) [2] = assay: Cell death (LDH activity, Cytotoxicity LDH Assay Kit-WST) after refrigerated storage and 24 h recultivation; conditions: for suppression of cell death after recultivation (in words): inhibitor added during 6 days refrigerated storage in HTMX(−) (FIG. 5B)
Procedure: as §1, §2
The following base refrigerated storage liquid was prepared. For convenience, this storage liquid will be referred as “HTMX(−)”. […] Specifically, ZVAD-FMK (Peptide Institute), Necrostatin (ChemScene), Deferoxamine (Cayman Chemicals), Ferrostatin-1 (Cayman Chemicals), Edaravone (Sigma-Aldrich), Probucol (Tokyo Chemical Industry), Trolox (Cayman Chemicals), Deferasirox (Tokyo Chemical Industry), Deferiprone (SelleckBiotech), Ebselen (Tokyo Chemical Industry), and Idebenone (Tokyo Chemical Industry) were added to the preservation liquid or to the medium at the time of recultivation, and the survival percentage and cell death percentage were measured and evaluated.
The number of dead cells was measured by measuring lactate dehydrogenase (LDH) activity using Cytotoxicity LDH Assay Kit-WST (Dojin Chemical). […] After incubation at room temperature for 30 minutes, the absorbance at 490 nm was measured using a microplate reader; and the cell death percentage was calculated as a ratio to the positive control (total dead cells). […]

[3] = additive 1 μM (optimal concentration) in HTMX(−)
[4] = additive 100 μM (optimal concentration) in HTMX(−)
[5] = additive 1000 μM (optimal concentration) in HTMX(−)

O=c1c2ccccc2[se]n1-c1ccccc1
Relative cell viability, mean (human iPS cells (253G1) [1]; [3]): 0.9914 | protective effect / viability (in words) (human iPS cells (253G1) [1]): high viability comparable to Trolox

Cc1c(C)c2c(c(C)c1O)CCC(C)(C(=O)O)O2 (stereo not shown)
Relative cell viability, mean (human iPS cells (253G1) [1]; additive 2 mM in HTMX(−)): 1 | 80% survival period (human iPS cells (253G1) [1]): about 3 days

CC1=NN(c2ccccc2)C(=O)C1
Relative cell viability, mean (human iPS cells (253G1) [1]; [4]): 1.194 | viability as compared to 2 mM Trolox (human iPS cells (253G1) [1]): about 1.2 times

COC1=C(OC)C(=O)C(CCCCCCCCCCO)=C(C)C1=O
Relative cell viability, mean (human iPS cells (253G1) [1]; [3]): 1.005 | protective effect / viability (in words) (human iPS cells (253G1) [1]): high viability comparable to Trolox

CC(=O)N(O)CCCCCNC(=O)CCC(=O)N(O)CCCCCNC(=O)CCC(=O)N(O)CCCCCN
Relative cell viability, mean (human iPS cells (253G1) [1]; additive 50 μM (optimal concentration) in HTMX(−)): 1.29 | viability as compared to 2 mM Trolox (human iPS cells (253G1) [1]): 1.3 times | suppression of cell death after recultivation (in words) (human iPS cells (253G1) [2]): suppressed cell death to almost the same extent as when Trolox was added to HTMX(−)

OC[C@@H](O)[C@@H](O)[C@H](O)[C@@H](O)CO
relative viability (in words) (human iPS cells (253G1) [1]; 60 mM in HTMX(−) diluted 4/5, HTMX without agents = 1 (FIG. 15)): higher viability than a group of HTMX having no added chemical agents, and the value was close to that of HTMX+Trolox | relative viability (in words) (human iPS cells (253G1) [1]; diluted HTMX(−) + sorbitol 60-150 mM, HTMX_Trx2K = 1 (FIG. 16A)): viability improved as the amount of added sorbitol increased | cell death (in words) (human iPS cells (253G1) [2]; 6 days refrigerated storage, 24 h recovery culture, diluted HTMX(−) + sorbitol 60-150 mM (FIG. 16B)): tended to decrease with increasing amounts of added sorbitol

O=C(O)c1ccc(-n2nc(-c3ccccc3O)nc2-c2ccccc2O)cc1
Relative cell viability, mean (human iPS cells (253G1) [1]; [4]): 1.55 | increase of survival after 6 days of cold storage (human iPS cells (253G1) [1]): not less than 1.5 times | viability as compared to 2 mM Trolox (human iPS cells (253G1) [1]): not less than 1.5 times | 80% survival period (human iPS cells (253G1) [1]): 5 days

Cc1c(O)c(=O)ccn1C
Relative cell viability, mean (human iPS cells (253G1) [1]; [5]): 1.56 | increase of survival after 6 days of cold storage (human iPS cells (253G1) [1]): not less than 1.5 times | viability as compared to 2 mM Trolox (human iPS cells (253G1) [1]): not less than 1.5 times

COC(=O)C[C@H](NC(=O)[C@H](C)NC(=O)[C@@H](NC(=O)OCc1ccccc1)C(C)C)C(=O)CF
cell death (human iPS cells (253G1) [2]; 6 days refrigerated storage in HTMX(−), 1 day recultivation, inhibitor added during recultivation (FIG. 5A)): less than 10% | suppression of cell death after recultivation (in words) (human iPS cells (253G1) [2]): cell death after recultivation was not different from that of the control HTMX group

CC(C)(Sc1cc(C(C)(C)C)c(O)c(C(C)(C)C)c1)Sc1cc(C(C)(C)C)c(O)c(C(C)(C)C)c1
Relative cell viability, mean (human iPS cells (253G1) [1]; [5]): 1.263 | viability as compared to 2 mM Trolox (human iPS cells (253G1) [1]): about 1.2 times
